Protein sequences, listed by entry. Tags and fused reporters are not part of them. Residues count along the entry.
UniProt Q00961, 20-842, stated change not applied: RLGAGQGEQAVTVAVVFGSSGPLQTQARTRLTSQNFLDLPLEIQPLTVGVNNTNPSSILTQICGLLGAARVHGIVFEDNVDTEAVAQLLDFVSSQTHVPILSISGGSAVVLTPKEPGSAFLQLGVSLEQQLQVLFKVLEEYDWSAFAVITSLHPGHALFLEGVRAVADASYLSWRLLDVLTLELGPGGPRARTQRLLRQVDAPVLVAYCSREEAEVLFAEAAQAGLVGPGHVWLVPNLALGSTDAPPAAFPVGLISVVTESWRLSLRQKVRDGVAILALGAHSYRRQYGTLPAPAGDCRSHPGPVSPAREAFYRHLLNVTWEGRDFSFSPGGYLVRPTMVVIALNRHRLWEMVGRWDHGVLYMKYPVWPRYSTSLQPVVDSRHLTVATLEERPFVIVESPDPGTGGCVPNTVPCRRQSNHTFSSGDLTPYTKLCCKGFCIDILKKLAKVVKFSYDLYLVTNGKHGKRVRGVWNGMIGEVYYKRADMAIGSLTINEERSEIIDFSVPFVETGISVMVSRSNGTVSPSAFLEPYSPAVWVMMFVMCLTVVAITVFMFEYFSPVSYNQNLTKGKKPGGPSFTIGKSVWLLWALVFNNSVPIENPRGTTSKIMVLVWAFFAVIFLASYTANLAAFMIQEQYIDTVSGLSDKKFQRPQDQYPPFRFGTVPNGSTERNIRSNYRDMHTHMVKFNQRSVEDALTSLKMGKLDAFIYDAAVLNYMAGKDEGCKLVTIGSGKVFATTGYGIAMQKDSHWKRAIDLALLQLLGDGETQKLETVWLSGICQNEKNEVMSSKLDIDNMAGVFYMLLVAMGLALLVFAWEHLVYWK
UniProt Q00961, 20-1237: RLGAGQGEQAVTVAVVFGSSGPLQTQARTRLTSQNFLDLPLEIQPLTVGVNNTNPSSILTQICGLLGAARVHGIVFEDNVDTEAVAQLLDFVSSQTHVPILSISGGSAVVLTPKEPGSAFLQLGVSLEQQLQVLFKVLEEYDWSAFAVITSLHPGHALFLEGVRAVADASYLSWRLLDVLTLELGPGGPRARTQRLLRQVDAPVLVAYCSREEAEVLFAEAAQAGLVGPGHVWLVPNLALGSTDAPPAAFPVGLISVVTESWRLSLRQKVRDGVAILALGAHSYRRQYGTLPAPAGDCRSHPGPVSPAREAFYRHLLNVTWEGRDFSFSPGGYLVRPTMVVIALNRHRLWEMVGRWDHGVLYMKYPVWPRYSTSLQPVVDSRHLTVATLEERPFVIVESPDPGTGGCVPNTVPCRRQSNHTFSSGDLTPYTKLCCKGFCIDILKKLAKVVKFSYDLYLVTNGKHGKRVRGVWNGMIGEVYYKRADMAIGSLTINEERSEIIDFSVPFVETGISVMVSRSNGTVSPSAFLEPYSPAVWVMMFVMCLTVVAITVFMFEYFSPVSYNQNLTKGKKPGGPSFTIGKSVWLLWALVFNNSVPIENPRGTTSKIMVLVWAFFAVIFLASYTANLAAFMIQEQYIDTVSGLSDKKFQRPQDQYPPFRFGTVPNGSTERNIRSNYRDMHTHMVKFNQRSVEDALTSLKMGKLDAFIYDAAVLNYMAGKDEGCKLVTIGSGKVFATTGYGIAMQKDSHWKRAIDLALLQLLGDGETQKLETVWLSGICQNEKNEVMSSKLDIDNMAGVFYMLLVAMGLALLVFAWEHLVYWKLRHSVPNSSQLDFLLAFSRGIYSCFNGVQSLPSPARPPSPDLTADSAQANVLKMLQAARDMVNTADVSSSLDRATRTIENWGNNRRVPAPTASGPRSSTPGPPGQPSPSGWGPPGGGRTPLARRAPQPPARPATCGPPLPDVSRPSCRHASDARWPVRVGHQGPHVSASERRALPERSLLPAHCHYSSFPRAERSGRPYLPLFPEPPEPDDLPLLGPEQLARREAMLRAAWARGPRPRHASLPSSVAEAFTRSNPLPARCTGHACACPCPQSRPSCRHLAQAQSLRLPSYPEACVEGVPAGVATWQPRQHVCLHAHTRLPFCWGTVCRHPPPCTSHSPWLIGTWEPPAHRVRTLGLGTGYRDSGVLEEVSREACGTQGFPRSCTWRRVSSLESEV

According to paper PMC7058367 (Biochemical pharmacology, 2018):

Legend:
[1] = target: GluN1/GluN2C^ΔCTD receptors (Rattus norvegicus, UniProt P35439+Q00961); test: Two-electrode voltage clamp of GluN2C CTD-deleted receptors; type: cell-based; conditions: 10 µM L-glutamate/10 µM glycine; GluN2C without CTD (Fig. 3C)
How it was run: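 Xenopus laevis oocytes were injected with GluN1a and GluN2 RNA at a 1:3 molar ratio. The CTD was removed by a stop codon at GluN1 838K or GluN2C 855K, and 10-20-fold more RNA than wild type was injected. Oocytes were kept in ND-96 at 17 °C for 1-5 days. TEVC was run at -60 mV in Ba2+ buffer (pH 7.4). […] Full-length receptors were run alternately on the same day and oocyte batch. Values are mean ± s.e.m.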

GluN1/GluN2C receptors = GluN1/GluN2C receptors (Rattus norvegicus, UniProt P35439+Q00961); type: cell-based; conditions: 10 µM L-glutamate/10 µM glycine; GluN2C with CTD (Fig. 3C)
How it was run: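 Oocytes expressed wild-type GluN1a/GluN2 receptors from 15-30 ng RNA (1:3 molar) and were held in ND-96 at 17 °C for 1-5 days. For Ca2+ chelation, 5 mM EGTA (50 nL) was injected 1-2 h before recording, with uninjected and water-injected oocytes as controls. TEVC was run at -60 mV in 116 mM NaCl, 2 mM KCl, 0.3 mM BaCl2, 5 mM HEPES (pH 7.4). […] Values are mean ± s.e.m.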

5-Pregnen-3β-ol-20-onesulphate [PS]
IC50 [1]: 7.8 ± 1.2 µM | IC50 (GluN1/GluN2C receptors): 82.4 ± 16.3 µM
